Values joined by “and” are separate entries in the source; they are usually repeats but may differ in a detail not shown here. Identical values can stand only once. The entries are a selection whose mix differs from that of the whole data set. Some of these compounds have results that are not shown, active ones among them. Records with an inconclusive call do not appear. Active and inactive are the calls of the source. Calls follow the shape of the dose curve; as a rule, active = well fitted inhibition curve with a large enough effect; inconclusive = small, poorly fitted or top-dose-only effect, or another doubt; inactive = no such curve, though single readings can be large or run the other way.
% is scaled to controls: 0 for no effect and ±100 for the full control effect.

Sequences of proteins named here, by UniProt entry; tags and fusion partners are left off.
UniProt P11473, whole entry: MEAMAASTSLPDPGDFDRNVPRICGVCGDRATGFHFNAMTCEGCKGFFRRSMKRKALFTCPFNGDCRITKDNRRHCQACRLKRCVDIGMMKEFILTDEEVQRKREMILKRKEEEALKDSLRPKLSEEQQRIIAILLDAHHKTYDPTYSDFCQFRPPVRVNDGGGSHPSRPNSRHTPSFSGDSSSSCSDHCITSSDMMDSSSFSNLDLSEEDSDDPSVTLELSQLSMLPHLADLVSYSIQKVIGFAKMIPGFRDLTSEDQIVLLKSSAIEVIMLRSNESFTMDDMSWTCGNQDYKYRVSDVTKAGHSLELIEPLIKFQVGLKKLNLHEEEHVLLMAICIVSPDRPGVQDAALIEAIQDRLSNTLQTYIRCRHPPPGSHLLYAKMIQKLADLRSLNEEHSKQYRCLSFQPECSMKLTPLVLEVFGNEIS

The target in this experiment is Vitamin D3 receptor (Homo sapiens) (UniProt P11473). Nature of the experiment: Inhibitors of the vitamin D receptor (VDR): qHTS. The settings on record: VDR-SRC2-3 peptide fluorescence polarization, 2 h; active compounds read low. A general note: Quantitative high-throughput screening tests each substance at several concentrations.
In the case of `CC(C)COc1ccc(C(=O)NCC2(N(C)C)CCCCC2)cc1`, the max response, negative = inhibition was inactive: 8.43%. Consider `COc1cccc(C(=O)NCC2(N3CCOCC3)CCCCC2)c1`, for which the max response, negative = inhibition is inactive: 8.99%.

Turning to `O=C(OC1CN2CCC1CC2)C(CO)(c1ccccc1)c1ccccc1` (centres undefined), the max response, negative = inhibition is inactive: 2.99%. The value for `O=C(OCCN1CCCC1)C(O)(c1ccccc1)c1ccccc1` was inactive: 2.28%; that for `CC(C)Oc1ccc(C(=O)NCC2(N(C)C)CCCCC2)cc1` was inactive: 4.33% and inactive: -10.4%; that for `CN(C)c1cccc(C(=O)NCC2(N(C)C)CCCCC2)c1` was inactive: -0.422%. The value for `COc1ccc(Br)c(C(=O)NCC2(N3CCCCC3)CCCCC2)c1` was inactive: 1.88%. Then `Cc1cccc(C(=O)NCC2(N(C)C)CCCCC2)c1`, with inactive: 12.7%; and `COc1cc(C(=O)NCC2(N(C)C)CCCCC2)c([N+](=O)[O-])cc1OC`, with inactive: -11.4%; and `CN(C)C1(CNC(=O)c2ccc(Br)cc2)CCCCC1`, with inactive: -1.91%. As for `O=C(NCC1(N2CCCCC2)CCCCC1)c1cccc(Cl)c1`, the max response, negative = inhibition is inactive: 5.94%. With `COc1ccc(Cl)cc1C(=O)NCC1(N(C)C)CCCCC1`, the max response, negative = inhibition is inactive: -28.1%. Then `COc1cccc(C(=O)NCC2(N3CCCCC3)CCCCC2)c1`, with inactive: -2.42%; and `COc1ccc(C(=O)NCC2(N(C)C)CCCCC2)cc1Cl`, with inactive: 7.7%; and `CCCCOc1ccccc1C(=O)NCC1(N(C)C)CCCCC1`, with inactive: 3.29%.

For `CN1CCCC(OC(=O)C(O)(c2ccccc2)c2ccccc2)C1` (centres undefined), the max response, negative = inhibition was inactive: 7.61%. Turning to `CN(C)c1ccc(C(=O)NCC2(N(C)C)CCCCC2)cc1`, the max response, negative = inhibition was inactive: 0.531%. Then `CN(C)C1CCCC1OC(=O)C(O)(c1ccccc1)c1ccccc1` (centres undefined), with inactive: -24%; and `Cc1ccccc1C(=O)NCC1(N2CCCCC2)CCCCC1`, with inactive: -14.4%; and `CN(C)C1(CNC(=O)c2ccccc2[N+](=O)[O-])CCCCC1`, with inactive: 4.74%. Take `CCOc1cccc(C(=O)NCC2(N(C)C)CCCCC2)c1`: the max response, negative = inhibition is inactive: 4.49%. Turning to `COc1ccc(C(=O)NCC2(N(C)C)CCCCC2)cc1`, the max response, negative = inhibition was inactive: -3.7%. Then `O=C(NCC1(N2CCCCC2)CCCCC1)c1cccc(Br)c1`, with inactive: -4%; and `CCN1CCCC(OC(=O)C2(O)c3ccccc3C=Cc3ccccc32)C1` (centres undefined), with inactive: -3.38%. Then `Cc1cc(C(=O)NCC2(N3CCCCC3)CCCCC2)ccc1[N+](=O)[O-]`, with inactive: -13.9%; and `O=C(NCC1(N2CCCCC2)CCCCC1)c1cc(F)c(F)cc1Cl`, with inactive: -3.3%. Then `C=CCN1CCN(CCOC(=O)C(O)(c2ccccc2)c2ccccc2)CC1`, with inactive: 5.06%; and `O=C(NCC1(N2CCCCC2)CCCCC1)c1cc([N+](=O)[O-])ccc1Cl`, with inactive: 0.606%.

For `Cc1ccc(C(=O)NCC2(N3CCCCC3)CCCCC2)cc1`, the max response, negative = inhibition is inactive: -6.97%.

In the case of `CN(C)C1(CNC(=O)c2ccccc2F)CCCCC1`, the max response, negative = inhibition is inactive: 14.2%. Then `COc1cc(SC)ccc1C(=O)NCC1(N(C)C)CCCCC1`, with inactive: 13.8%. As to `CCN(CC)CC(C)C(C)OC(=O)C(O)(c1ccccc1)c1ccccc1` (centres undefined), the max response, negative = inhibition is inactive: 8.48%. Then `CN(C)C1(CNC(=O)c2cccc(Cl)c2)CCCCC1`, with inactive: 10.2%. Regarding `CC(C)N1C(=O)CC2(CCN(CCOC(=O)C(O)(c3ccccc3)c3ccccc3)CC2)C1=O`, the max response, negative = inhibition is inactive: 2.22%.

For the origin of these results see PubChem BioAssay AID504847 (National Center for Advancing Translational Sciences (NCATS), 2011).
